The test addresses calcineurin (Homo sapiens, UniProt P62937+P63098+Q08209). Kind of test: Inhibition of the phosphatase activity of calcineurin (scintillation-proximity-assay, in presence of Cyp18).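 Further: calcineurin dephosphorylation of a ³³P-labelled RII phosphopeptide, captured on streptavidin-coated wells and read by scintillation counting, with uninhibited enzyme activity taken as 100%.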
Consider `CC[C@@H]1NC(=O)[C@H]([C@H](O)[C@H](C)Cc2nc3ccc4c(S(=O)(=O)O)cccc4c3[nH]2)N(C)C(=O)[C@H](C(C)C)N(C)C(=O)[C@H](CC(C)C)N(C)C(=O)[C@H](CC(C)C)N(C)C(=O)[C@@H](C)NC(=O)[C@H](C)NC(=O)[C@H](CC(C)C)N(C)C(=O)[C@H](C(C)C)NC(=O)[C@H](CC(C)C)N(C)C(=O)CN(C)C1=O` [Compound 45], for which the IC50 is over 10 µM.

As to `CCCCOC(=O)c1ccc2[nH]c(C[C@@H](C)[C@@H](O)[C@H]3C(=O)N[C@@H](CC)C(=O)N(C)CC(=O)N(C)[C@@H](CC(C)C)C(=O)N[C@@H](C(C)C)C(=O)N(C)[C@@H](CC(C)C)C(=O)N[C@@H](C)C(=O)N[C@H](C)C(=O)N(C)[C@@H](CC(C)C)C(=O)N(C)[C@@H](CC(C)C)C(=O)N(C)[C@@H](C(C)C)C(=O)N3C)nc2c1` [Compound 11], the IC50 came to 4.7 µM.

For the compound `CC[C@@H]1NC(=O)[C@H]([C@H](O)[C@H](C)Cc2nc3cc(C(=O)NCCOCCOCCN)ccc3[nH]2)N(C)C(=O)[C@H](C(C)C)N(C)C(=O)[C@H](CC(C)C)N(C)C(=O)[C@H](CC(C)C)N(C)C(=O)[C@@H](C)NC(=O)[C@H](C)NC(=O)[C@H](CC(C)C)N(C)C(=O)[C@H](C(C)C)NC(=O)[C@H](CC(C)C)N(C)C(=O)CN(C)C1=O` [Compound 66], the IC50 is over 10 µM.

Regarding `CC[C@@H]1NC(=O)[C@H]([C@H](O)[C@H](C)Cc2nc3cccc(C(=O)O)c3[nH]2)N(C)C(=O)[C@H](C(C)C)N(C)C(=O)[C@H](CC(C)C)N(C)C(=O)[C@H](CC(C)C)N(C)C(=O)[C@@H](C)NC(=O)[C@H](C)NC(=O)[C@H](CC(C)C)N(C)C(=O)[C@H](C(C)C)NC(=O)[C@H](CC(C)C)N(C)C(=O)CN(C)C1=O` [Compound 28], the IC50 is over 10 µM.

With `CC[C@@H]1NC(=O)[C@H]([C@H](O)[C@H](C)Cc2nc3nc(S)nc(O)c3[nH]2)N(C)C(=O)[C@H](C(C)C)N(C)C(=O)[C@H](CC(C)C)N(C)C(=O)[C@H](CC(C)C)N(C)C(=O)[C@@H](C)NC(=O)[C@H](C)NC(=O)[C@H](CC(C)C)N(C)C(=O)[C@H](C(C)C)NC(=O)[C@H](CC(C)C)N(C)C(=O)CN(C)C1=O` [Compound 17], the IC50 was over 10 µM.

Regarding `CC[C@@H]1NC(=O)[C@H]([C@H](O)[C@H](C)Cc2nc3ccc(C(=O)O)cc3n2C)N(C)C(=O)[C@H](C(C)C)N(C)C(=O)[C@H](CC(C)C)N(C)C(=O)[C@H](CC(C)C)N(C)C(=O)[C@@H](C)NC(=O)[C@H](C)NC(=O)[C@H](CC(C)C)N(C)C(=O)[C@H](C(C)C)NC(=O)[C@H](CC(C)C)N(C)C(=O)CN(C)C1=O` [Compound 37], the IC50 is over 10 µM.

The values are drawn from patent US9453051B2, “Cyclosporin derivatives” (priority 2011, dated 2016).
